Data published in PubChem BioAssay AID588627 (Johns Hopkins Ion Channel Center, 2011).
This is a selection; strong and weak results do not stand in their true shares. Calls of active or inactive are those of the source.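 How the source made its calls: active means calcium response B-score plate-corrected fluorescence ratio at least 3 library SD, with starting fluorescence B-score inside 5 SD; inactive means the rest.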

The chains behind the UniProt entries cited, without tags or fusion partners.
UniProt Q96LB2, whole entry: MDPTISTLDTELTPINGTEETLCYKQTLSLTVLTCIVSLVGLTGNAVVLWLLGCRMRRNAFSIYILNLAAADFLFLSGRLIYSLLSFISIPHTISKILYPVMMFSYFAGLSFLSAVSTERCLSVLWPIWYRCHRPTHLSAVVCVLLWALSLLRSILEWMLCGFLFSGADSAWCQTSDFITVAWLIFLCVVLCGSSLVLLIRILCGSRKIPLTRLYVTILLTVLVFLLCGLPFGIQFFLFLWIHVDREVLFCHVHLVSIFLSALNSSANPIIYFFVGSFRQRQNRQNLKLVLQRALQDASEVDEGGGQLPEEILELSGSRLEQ

Each molecule was assayed against Mas-related G-protein coupled receptor member X1 (Homo sapiens) (UniProt Q96LB2) (assay: MrgX1 activation via calcium signaling – HEK293 cells, Fluo-4 calcium flux, primary screen (AID 588627)). Details: Fluo-4 calcium fluorescence, agonist mode, at 10 µM.
How it was run: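 Test system: HEK293 cells stably expressing human MrgX1 receptor; Input: fifteen thousand cells per well; Dosing: compound delivered in addition one of three; Schedule: overnight seeding, then 1 h dark dye loading; Technique: Fluo-4 NW calcium fluorescence; Measure: B-scored fluorescence response ratio; Controls: positive and negative controls per plate.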

Compound	outcome
CC(C)(C)c1ccc(OP(C)(=O)Nc2ccc(SC(F)(F)F)cc2)cc1 (stereo not given)	inactive
Cc1ccc(OP(=O)(Nc2ccc([N+](=O)[O-])cn2)Oc2ccc(C)cc2)cc1	inactive
Cc1ccc(NP(C)(=O)Oc2ccccc2)c(C)c1 (stereo not given)	inactive
CC(C)c1ccc(OP(=O)(Nc2ccccn2)Oc2ccccc2F)cc1 (stereo not given)	inactive
COc1ccccc1OP(C)(=O)Nc1ccc(C)cc1 (stereo not given)	inactive
ClCCSc1nnc(-c2cccnc2)o1	inactive
CCOC(=O)c1ccc(NP(C)(=O)Oc2ccccc2)cc1 (stereo not given)	inactive
Cc1cc(C)cc(OP(C)(N)=O)c1 (stereo not given)	inactive
O=[N+]([O-])c1cc([N+](=O)[O-])c(-c2ccn[nH]2)s1	inactive
COc1ccc(OP(C)(=O)Nc2cccc(F)c2)cc1 (stereo not given)	inactive
CCN(CC)C(=S)SC(NC=O)C(Cl)(Cl)Cl (stereo not given)	inactive
COc1ccccc1OP(C)(=O)Nc1cc(Cl)ccc1C (stereo not given)	inactive
CC(C)NC(=O)NP(=O)(Oc1ccccc1)Oc1ccccc1	inactive
Cc1cc(=O)[nH]c(N[N+](=O)[O-])n1	inactive
CCN(CC)CCCOC(=O)C(O)(c1ccccc1)c1ccccc1	inactive
O=C(OC1CN2CCC1CC2)C12CC3CC(CC(C3)C1)C2 (stereo not given)	inactive
Cc1c2c(nc3ccccc13)SC(C(Cl)Cl)C2 (stereo not given)	inactive
COc1cc(I)ccc1[As](=O)(O)O	inactive
COc1ccc2nc(NP(=O)(c3ccccc3)c3ccccc3)sc2c1	inactive
COc1ccc(N/C(=N/P(=O)(N2CCOCC2)N2CCOCC2)N2CCOCC2)cc1	inactive
